In assay [1] the target is T1, GABA A receptor alpha-3/beta-2/gamma-2 (Homo sapiens, UniProt P18507+P34903+P47870).
T1 sequence (P47870 whole entry): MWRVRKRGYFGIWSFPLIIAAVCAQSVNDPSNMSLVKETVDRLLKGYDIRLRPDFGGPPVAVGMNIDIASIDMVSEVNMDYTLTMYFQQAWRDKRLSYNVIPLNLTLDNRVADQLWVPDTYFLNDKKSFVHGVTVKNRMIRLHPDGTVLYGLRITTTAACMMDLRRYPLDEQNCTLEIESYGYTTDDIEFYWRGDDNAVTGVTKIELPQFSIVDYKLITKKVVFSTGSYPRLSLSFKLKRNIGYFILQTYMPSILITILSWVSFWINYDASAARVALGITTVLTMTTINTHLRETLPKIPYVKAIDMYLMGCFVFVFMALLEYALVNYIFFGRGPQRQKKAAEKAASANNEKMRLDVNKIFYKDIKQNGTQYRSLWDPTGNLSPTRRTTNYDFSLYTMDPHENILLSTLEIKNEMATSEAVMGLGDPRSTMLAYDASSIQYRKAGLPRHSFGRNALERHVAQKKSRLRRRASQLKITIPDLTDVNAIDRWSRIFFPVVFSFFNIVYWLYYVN
T1 sequence (P18507 whole entry): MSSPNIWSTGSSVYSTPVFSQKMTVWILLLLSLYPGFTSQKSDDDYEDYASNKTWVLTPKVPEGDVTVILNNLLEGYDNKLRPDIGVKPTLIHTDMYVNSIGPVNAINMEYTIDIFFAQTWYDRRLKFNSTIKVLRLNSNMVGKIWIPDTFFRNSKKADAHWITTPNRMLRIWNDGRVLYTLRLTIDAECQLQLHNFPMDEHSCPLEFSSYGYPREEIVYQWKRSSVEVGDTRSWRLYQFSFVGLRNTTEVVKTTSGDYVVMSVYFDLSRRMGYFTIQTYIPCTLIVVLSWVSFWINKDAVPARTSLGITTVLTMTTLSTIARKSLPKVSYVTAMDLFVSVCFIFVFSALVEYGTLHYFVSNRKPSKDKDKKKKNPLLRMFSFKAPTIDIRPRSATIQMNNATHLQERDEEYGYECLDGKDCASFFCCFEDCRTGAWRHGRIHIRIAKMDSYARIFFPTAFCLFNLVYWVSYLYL
T1 sequence (P34903 whole entry): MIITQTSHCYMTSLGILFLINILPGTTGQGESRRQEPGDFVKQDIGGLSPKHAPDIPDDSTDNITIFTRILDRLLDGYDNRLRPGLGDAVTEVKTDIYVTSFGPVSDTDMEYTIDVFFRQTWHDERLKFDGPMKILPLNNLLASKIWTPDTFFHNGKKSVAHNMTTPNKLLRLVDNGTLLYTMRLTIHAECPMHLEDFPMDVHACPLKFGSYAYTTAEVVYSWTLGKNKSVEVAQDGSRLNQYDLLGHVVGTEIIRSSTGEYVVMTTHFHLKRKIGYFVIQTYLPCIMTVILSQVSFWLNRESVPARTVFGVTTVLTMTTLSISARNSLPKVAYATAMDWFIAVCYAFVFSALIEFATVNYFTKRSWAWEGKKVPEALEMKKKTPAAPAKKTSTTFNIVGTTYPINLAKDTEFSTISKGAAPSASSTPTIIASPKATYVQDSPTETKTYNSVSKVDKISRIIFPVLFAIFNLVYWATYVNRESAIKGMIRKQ
Briefly: Binding affinity for human GABA-A receptor alpha-3-beta-2-gamma-2 expressed in L(tk-) cell membranes. An outline of the steps:
(§1)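 Competition binding on membranes of Ltk cells expressing human αxβ2γ2 receptors. Radioligand was [3H]Ro 15-1788, or [3H]Ro 15-4513 for α6β2γ2. Ki is the mean of two determinations differing by less than 10%.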

Sequences of proteins named here, by UniProt entry; tags and fusion partners are left off.
UniProt Q16445, whole entry: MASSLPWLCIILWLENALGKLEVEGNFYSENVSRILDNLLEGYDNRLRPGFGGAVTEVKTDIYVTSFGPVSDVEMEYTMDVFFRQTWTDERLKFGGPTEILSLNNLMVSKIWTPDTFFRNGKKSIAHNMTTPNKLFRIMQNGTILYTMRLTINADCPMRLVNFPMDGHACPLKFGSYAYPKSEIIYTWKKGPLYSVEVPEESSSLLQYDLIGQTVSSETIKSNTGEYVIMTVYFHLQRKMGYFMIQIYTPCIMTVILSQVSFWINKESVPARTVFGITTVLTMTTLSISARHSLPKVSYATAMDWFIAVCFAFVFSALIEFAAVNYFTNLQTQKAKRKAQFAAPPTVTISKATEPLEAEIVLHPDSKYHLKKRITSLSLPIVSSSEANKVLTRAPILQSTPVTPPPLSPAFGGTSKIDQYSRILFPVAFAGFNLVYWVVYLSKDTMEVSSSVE

Assay [2] addresses GABA A receptor alpha-6/beta-2/gamma-2 (Homo sapiens, UniProt P18507+P47870+Q16445). Description: Binding affinity for human GABA-A receptor alpha-6-beta-2-gamma-2 expressed in L(tk-) cell membranes. An outline of the steps:
as §1

Assay [3] concerns the target T2, GABA-A receptor; alpha-1/beta-2/gamma-2 (Homo sapiens, UniProt P14867+P18507+P47870).
T2 sequence (P14867 whole entry): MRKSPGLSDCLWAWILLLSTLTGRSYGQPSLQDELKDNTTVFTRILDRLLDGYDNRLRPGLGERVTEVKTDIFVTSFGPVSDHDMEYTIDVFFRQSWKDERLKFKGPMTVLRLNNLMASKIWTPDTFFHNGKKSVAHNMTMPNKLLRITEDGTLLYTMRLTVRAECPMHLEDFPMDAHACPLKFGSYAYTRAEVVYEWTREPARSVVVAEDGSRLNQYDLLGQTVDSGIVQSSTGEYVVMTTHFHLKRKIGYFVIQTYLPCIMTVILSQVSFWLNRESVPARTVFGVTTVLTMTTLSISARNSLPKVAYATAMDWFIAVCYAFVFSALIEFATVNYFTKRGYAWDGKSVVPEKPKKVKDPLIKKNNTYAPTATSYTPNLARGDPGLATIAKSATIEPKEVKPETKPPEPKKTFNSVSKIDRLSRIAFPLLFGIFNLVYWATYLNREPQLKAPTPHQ
T2 sequence (P47870 whole entry): T1 sequence (P47870 whole entry)
T2 sequence (P18507 whole entry): T1 sequence (P18507 whole entry)
Description: Binding affinity for human GABA-A receptor alpha-1-beta-2-gamma-2 expressed in L(tk-) cell membranes. The gist of the method:
as §1

The target of assay [4] is T3, GABA A receptor alpha-2/beta-2/gamma-2 (Homo sapiens, UniProt P18507+P47869+P47870).
T3 sequence (P47870 whole entry): T1 sequence (P47870 whole entry)
T3 sequence (P18507 whole entry): T1 sequence (P18507 whole entry)
T3 sequence (P47869 whole entry): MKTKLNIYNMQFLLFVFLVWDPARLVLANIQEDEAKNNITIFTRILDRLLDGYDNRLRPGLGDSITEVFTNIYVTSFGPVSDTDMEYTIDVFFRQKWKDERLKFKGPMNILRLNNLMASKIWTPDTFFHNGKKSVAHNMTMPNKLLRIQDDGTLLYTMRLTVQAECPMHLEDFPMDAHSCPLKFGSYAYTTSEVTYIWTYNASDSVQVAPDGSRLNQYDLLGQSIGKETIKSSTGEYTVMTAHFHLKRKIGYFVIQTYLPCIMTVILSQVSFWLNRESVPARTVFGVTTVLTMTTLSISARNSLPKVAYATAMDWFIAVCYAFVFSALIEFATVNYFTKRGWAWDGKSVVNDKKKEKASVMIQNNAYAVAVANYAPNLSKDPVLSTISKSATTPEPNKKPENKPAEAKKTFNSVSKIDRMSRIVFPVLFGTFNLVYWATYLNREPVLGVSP
Briefly: Binding affinity for human GABA-A receptor alpha-2-beta-2-gamma-2 expressed in L(tk-) cell membranes. An outline of the steps:
as §1

Structures are written as SMILES.

The Ki is a measure of affinity in units of concentration, obtained from inhibition or displacement. Higher therefore signals a looser hold on the target. For the compound `CCOC(=O)c1ncn2c1CN(C)C(=O)c1cc(N=[N+]=[N-])ccc1-2` [Ro-154513], the inhibitory constant (Ki) in assay [1] amounted to 2.5 nM; in assay [2], 3.8 nM; in assay [3], 3.3 nM; in assay [4], 2.6 nM.

Values taken from ChEMBL document CHEMBL1129572, “Synthesis and pharmacological properties of novel 8-substituted imidazobenzodiazepines: high-affinity, selective probes for alpha 5-containing GABAA receptors” (J Med Chem, 1996).
